# Yeast mating assay 1: variants of the scFv Ab-14

The target is the same throughout: PDVDLGDISGINAS, from the HR2 region of SARS-CoV-2 spike.

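The starting antibody came from a phage panning campaign against this peptide. Variants in AAYL50 differ from the parent at up to three CDR positions; double and triple changes were sampled at random. The scFvs were displayed on barcoded MATa yeast, the peptide on MATalpha yeast. Pairs that bind mate more often; barcode pairs of the diploids are counted by sequencing. Each replicate has its own calibration line, from reference interactions of the BCL2 family. The assay was run in three technical replicates.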

Parent: Ab-14, a human scFv built as VH, the linker GGGGSGGGGSGGGGS, VL. Only the CDRs of the light chain vary.
VH: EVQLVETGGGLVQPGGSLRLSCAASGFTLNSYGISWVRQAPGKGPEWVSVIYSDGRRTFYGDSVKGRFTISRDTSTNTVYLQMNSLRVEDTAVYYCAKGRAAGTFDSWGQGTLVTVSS
VL: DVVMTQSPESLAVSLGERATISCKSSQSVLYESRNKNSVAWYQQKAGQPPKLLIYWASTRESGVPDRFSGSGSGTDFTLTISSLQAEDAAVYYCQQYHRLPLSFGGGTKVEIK

Changes read parent residue, position, new residue, counted from the first residue of the VL shown. Affinities are written as log10 Kd with Kd in nM; a lower number is a better binder. A pair that was not seen in that replicate is written "nd"; this usually means weak binding, but a binder can also be missed.

| # | changes | log10 Kd, replicates | empty controls |
|---|---|---|---|
| 1 | E32M/S103Q | 2.54 / 2.44 / 1.87 | 1 of 9 (4.61) |
| 2 | E32L/S33V/T59H | 6.00 / 4.42 / nd | 3 of 9 (4.36) |
| 3 | Q27G/L30C/Y97L | nd / nd / 3.66 | 1 of 9 (3.98) |
| 4 | S33F/R34C/E61C | 2.68 / 1.86 / 1.94 | 0 of 9 |
| 5 | V39Y/A40I/S62Q | nd / nd / nd | 2 of 9 (5.42) |
| 6 | K24A/N35L/A40Q | nd / 3.33 / 4.97 | 2 of 9 (4.34) |
| 7 | K36Q/N37K/L100N | 0.79 / 0.81 / 0.97 | 1 of 9 (2.93) |
| 8 | V39H/W56A/E61N | nd / nd / 4.59 | 2 of 9 (4.58) |
| 9 | S58A/R60H | 4.10 / 3.81 / 3.29 | 3 of 9 (4.73) |
| 10 | V39K/L102H | 4.23 / nd / 3.60 | 5 of 9 (4.07) |
| 11 | K36E/W56Y/Q96G | 1.92 / 2.35 / 2.16 | 1 of 9 (5.07) |
| 12 | V29L/N37S/L100R | 0.61 / 0.71 / 0.63 | 0 of 9 |
| 13 | L30F/Y97H/R99S | 1.51 / 1.55 / 1.66 | 3 of 9 (4.75) |
| 14 | Q27E/S28Q/P101S | 0.44 / 1.17 / 1.38 | 0 of 9 |
| 15 | N35Q/W56Y/R60V | 3.06 / nd / nd | 0 of 9 |
| 16 | A40R/H98W | nd / nd / nd | 0 of 9 |
| 17 | K24C/S62K/Y97C | 2.85 / 2.26 / 1.47 | 0 of 9 |
| 18 | E61F/S62C/S103G | 3.95 / nd / 3.28 | 1 of 9 (5.53) |
| 19 | Y31R/W56H/A57I | 0.97 / 1.10 / 1.04 | 5 of 9 (4.84) |
| 20 | S38V | nd / 3.13 / nd | 3 of 9 (3.79) |
| 21 | L30Q/V39W/A40P | nd / nd / nd | 1 of 9 (3.40) |
| 22 | S38F/Y97I/R99I | nd / 5.38 / nd | 2 of 9 (3.81) |
| 23 | S26E/L30W/R99K | 0.55 / 0.75 / 0.91 | 4 of 9 (4.90) |
| 24 | K24C/S28V/N37T | nd / nd / nd | 0 of 9 |
| 25 | S28C/Q96R/P101H | nd / 3.56 / nd | 1 of 9 (4.06) |
| 26 | S33T/R34H/H98A | 0.94 / 1.00 / 0.88 | 3 of 9 (4.13) |
| 27 | S33R/N37E/H98D | nd / nd / 1.76 | 0 of 9 |
| 28 | S33W/K36Q/H98L | 1.07 / 1.27 / 1.26 | 4 of 9 (4.14) |
| 29 | S25P/E61Q/Q96C | nd / 3.71 / nd | 1 of 9 (4.97) |
| 30 | S25D/S26P/A40I | 4.81 / 3.22 / nd | 3 of 9 (4.62) |
| 31 | S28W/A40N/S58F | 4.70 / nd / nd | 0 of 9 |
| 32 | Y31M/A40Q/L102C | nd / nd / nd | 1 of 9 (3.72) |
| 33 | V39Q/E61T/R99W | nd / nd / nd | 0 of 9 |
| 34 | V39Q/H98C/S103H | nd / nd / nd | 1 of 9 (2.75) |
| 35 | K24D/R34N | 1.81 / 1.92 / 1.68 | 0 of 9 |
| 36 | Q96G/Y97E | 2.22 / 3.90 / 4.21 | 0 of 9 |
| 37 | S26M/V39K/T59S | nd / 3.68 / nd | 0 of 9 |

Excerpt, the first 3 entries:

changes,"log10 Kd, replicates",empty controls
E32M/S103Q,2.54 / 2.44 / 1.87,1 of 9 (4.61)
E32L/S33V/T59H,6.00 / 4.42 / nd,3 of 9 (4.36)
Q27G/L30C/Y97L,nd / nd / 3.66,1 of 9 (3.98)

As a blank, each scFv also met three strains without target: over library AAYL50, 18% of these pairings were detected, typically at 4.19 and seldom below 2.99. The control count says in how many pairings with the empty strains this scFv gave a signal, with their mean in brackets.

Source: Engelhart et al. 2022 (doi:10.1038/s41597-022-01779-4), MIT Lincoln Laboratory and A-Alpha Bio; data file from the FLAb repository.